The values that follow are results of earlier work, collected in article PMC7008171 (Frontiers in Pharmacology, 2020).

SMILES strings stand for the structures. Marks after values point to notes of the source that are not given here.

The conditions of this data set: model input, cited from earlier work.

For the compound `Cc1nc2n(c(=O)c1CCN1CCC(c3noc4cc(F)ccc34)CC1)CCCC2` [risperidone], for the setting “ref Drugbank”, the “log P (octanol/water partition coefficient)” value is recorded as 3.04 ^a. In addition, the pKa1 (ref Pubchem) is 8.24.
